US9302989B2 (priority 2010, dated 2016)

Sequences of proteins named here, by UniProt entry; tags and fusion partners are left off. A change or cut given only in a name is not applied to a line headed by its entry.
UniProt P43490: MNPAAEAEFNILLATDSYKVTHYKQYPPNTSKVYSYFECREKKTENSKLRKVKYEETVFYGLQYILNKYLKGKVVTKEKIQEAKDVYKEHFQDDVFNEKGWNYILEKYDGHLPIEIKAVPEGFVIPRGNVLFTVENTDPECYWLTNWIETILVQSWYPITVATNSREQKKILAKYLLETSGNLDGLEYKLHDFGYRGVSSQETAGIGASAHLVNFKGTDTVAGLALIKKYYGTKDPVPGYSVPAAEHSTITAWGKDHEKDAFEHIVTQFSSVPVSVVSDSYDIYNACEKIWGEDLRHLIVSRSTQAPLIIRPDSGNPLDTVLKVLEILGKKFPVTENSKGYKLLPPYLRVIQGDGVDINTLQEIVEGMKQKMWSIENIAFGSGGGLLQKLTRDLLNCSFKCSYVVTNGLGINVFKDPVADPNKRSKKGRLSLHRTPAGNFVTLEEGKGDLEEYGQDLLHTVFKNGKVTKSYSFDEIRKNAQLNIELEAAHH

Target: NAMPT (Homo sapiens (Human), UniProt P43490)
Settings: read-out: TR-FRET Binding IC50 (μM) probe 1

| Structure (SMILES) | IC50 [µM] |
| --- | --- |
| COCCN(CCOC)C(=O)c1ccc(NC(=O)N2Cc3ccccc3C2)cc1 [Example 222, N-{4-[bis(2-methoxyethyl)carbamoyl]phenyl}-1,3-dihydro-2H-isoindole-2-carboxamide] | 0.297 |
| O=C(Nc1cccc(F)c1)c1ccc(NC(=O)N2Cc3ccccc3C2)cc1 [Example 223, N-{4-[(3-fluorophenyl)carbamoyl]phenyl}-1,3-dihydro-2H-isoindole-2-carboxamide] | 0.302 |
| O=C(NC1CCCC1)c1ccc(NC(=O)N2Cc3ccccc3C2)cc1 [Example 224, N-[4-(cyclopentylcarbamoyl)phenyl]-1,3-dihydro-2H-isoindole-2-carboxamide] | 0.317 |
| NC(=O)C1CCN(C(=O)c2ccc(NC(=O)N3Cc4ccccc4C3)cc2)CC1 [Example 225, N-{4-[(4-carbamoylpiperidin-1-yl)carbonyl]phenyl}-1,3-dihydro-2H-isoindole-2-carboxamide] | 0.333 |
| O=C(NC1CC1)c1ccc(NC(=O)N2Cc3ccccc3C2)cc1 [Example 226, N-[4-(cyclopropylcarbamoyl)phenyl]-1,3-dihydro-2H-isoindole-2-carboxamide] | 0.339 |
| CNC(=O)c1ccc(NC(=O)N2Cc3ccccc3C2)cc1 [Example 227, N-[4-(methylcarbamoyl)phenyl]-1,3-dihydro-2H-isoindole-2-carboxamide] | 0.359 |
| CN(C)CCCNC(=O)c1ccc(NC(=O)N2Cc3ccccc3C2)cc1 [Example 228, N-(4-{[3-(dimethylamino)propyl]carbamoyl}phenyl)-1,3-dihydro-2H-isoindole-2-carboxamide] | 0.359 |
| CN(CC1CCCO1)C(=O)c1ccc(NC(=O)N2Cc3ccccc3C2)cc1 (stereo not drawn) [Example 229, N-{4-[methyl(tetrahydrofuran-2-ylmethyl)carbamoyl]phenyl}-1,3-dihydro-2H-isoindole-2-carboxamide] | 0.361 |
| CCCC(C)NC(=O)c1ccc(NC(=O)N2Cc3ccccc3C2)cc1 (stereo not drawn) [Example 230, N-[4-(pentan-2-ylcarbamoyl)phenyl]-1,3-dihydro-2H-isoindole-2-carboxamide] | 0.369 |
| CCC(CC)NC(=O)c1ccc(NC(=O)N2Cc3ccccc3C2)cc1 [Example 231, N-[4-(pentan-3-ylcarbamoyl)phenyl]-1,3-dihydro-2H-isoindole-2-carboxamide] | 0.414 |
| O=C(NC1CCC1)c1ccc(NC(=O)N2Cc3ccccc3C2)cc1 [Example 232, N-[4-(cyclobutylcarbamoyl)phenyl]-1,3-dihydro-2H-isoindole-2-carboxamide] | 0.42 |
| CN(CC1OCCO1)C(=O)c1ccc(NC(=O)N2Cc3ccccc3C2)cc1 [Example 233, N-{4-[(1,3-dioxolan-2-ylmethyl)(methyl)carbamoyl]phenyl}-1,3-dihydro-2H-isoindole-2-carboxamide] | 0.43 |
| O=C(Nc1cnn(-c2ccc(F)cc2)c1)c1ccc(NC(=O)N2Cc3ccccc3C2)cc1 [Example 234, N-(4-{[1-(4-fluorophenyl)-1H-pyrazol-4-yl]carbamoyl}phenyl)-1,3-dihydro-2H-isoindole-2-carboxamide] | 0.43 |
| CC(C)(CO)NC(=O)c1ccc(NC(=O)N2Cc3ccccc3C2)cc1 [Example 235, N-{4-[(1-hydroxy-2-methylpropan-2-yl)carbamoyl]phenyl}-1,3-dihydro-2H-isoindole-2-carboxamide] | 0.455 |
| O=C(Nc1cnn(-c2ccccc2)c1)c1ccc(NC(=O)N2Cc3ccccc3C2)cc1 [Example 236, N-{4-[(1-phenyl-1H-pyrazol-4-yl)carbamoyl]phenyl}-1,3-dihydro-2H-isoindole-2-carboxamide] | 0.457 |
| O=C(NCCc1ccc(C(F)(F)F)cc1)c1ccc(NC(=O)N2Cc3ccccc3C2)cc1 [Example 237, N-[4-({2-[4-(trifluoromethyl)phenyl]ethyl}carbamoyl)phenyl]-1,3-dihydro-2H-isoindole-2-carboxamide] | 0.46 |
| CCCN(CCOC)C(=O)c1ccc(NC(=O)N2Cc3ccccc3C2)cc1 [Example 238, N-{4-[(2-methoxyethyl)(propyl)carbamoyl]phenyl}-1,3-dihydro-2H-isoindole-2-carboxamide] | 0.504 |
| O=C(Nc1ccc(C(=O)N2CCCC(C(F)(F)F)C2)cc1)N1Cc2ccccc2C1 (stereo not drawn) [Example 240, N-(4-{[3-(trifluoromethyl)piperidin-1-yl]carbonyl}phenyl)-1,3-dihydro-2H-isoindole-2-carboxamide] | 0.52 |
| CCOCCN(CCOCC)C(=O)c1ccc(NC(=O)N2Cc3ccccc3C2)cc1 [Example 241, N-{4-[bis(2-ethoxyethyl)carbamoyl]phenyl}-1,3-dihydro-2H-isoindole-2-carboxamide] | 0.523 |
| CCCCN(CC)C(=O)c1ccc(NC(=O)N2Cc3ccccc3C2)cc1 [Example 242, N-{4-[butyl(ethyl)carbamoyl]phenyl}-1,3-dihydro-2H-isoindole-2-carboxamide] | 0.524 |
| COCC(C)NC(=O)c1ccc(NC(=O)N2Cc3ccccc3C2)cc1 (stereo not drawn) [Example 243, N-{4-[(1-methoxypropan-2-yl)carbamoyl]phenyl}-1,3-dihydro-2H-isoindole-2-carboxamide] | 0.543 |

| Structure (SMILES) | IC50 [µM] |
| --- | --- |
| COCCN(C)C(=O)c1ccc(NC(=O)N2Cc3ccccc3C2)cc1 [Example 244, N-{4-[(2-methoxyethyl)(methyl)carbamoyl]phenyl}-1,3-dihydro-2H-isoindole-2-carboxamide] | 0.574 |
| O=C(Nc1ccc(C(=O)N2CCOCC2)cc1)N1Cc2ccccc2C1 [Example 246, N-[4-(morpholin-4-ylcarbonyl)phenyl]-1,3-dihydro-2H-isoindole-2-carboxamide] | 0.618 |
| CC(C)CN(C)C(=O)c1ccc(NC(=O)N2Cc3ccccc3C2)cc1 [Example 247, N-{4-[isobutyl(methyl)carbamoyl]phenyl}-1,3-dihydro-2H-isoindole-2-carboxamide] | 0.624 |
| CC1CCCN(C(=O)c2ccc(NC(=O)N3Cc4ccccc4C3)cc2)C1 (stereo not drawn) [Example 249, N-{4-[(3-methylpiperidin-1-yl)carbonyl]phenyl}-1,3-dihydro-2H-isoindole-2-carboxamide] | 0.778 |
| NC(=O)c1ccc(NC(=O)N2Cc3ccccc3C2)cc1 [Example 250, N-(4-carbamoylphenyl)-1,3-dihydro-2H-isoindole-2-carboxamide] | 0.78 |
| O=C(Nc1ccc(C(=O)N2CCC[C@H]2C(F)(F)F)cc1)N1Cc2ccccc2C1 [Example 251, N-(4-{[(2S)-2-(trifluoromethyl)pyrrolidin-1-yl]carbonyl}phenyl)-1,3-dihydro-2H-isoindole-2-carboxamide] | 0.83 |
| CC(C)C[C@@H](CO)NC(=O)c1ccc(NC(=O)N2Cc3ccccc3C2)cc1 [Example 252, N-(4-{[(2S)-1-hydroxy-4-methylpentan-2-yl]carbamoyl}phenyl)-1,3-dihydro-2H-isoindole-2-carboxamide] | 0.837 |
| O=C(N[C@@H](CO)c1ccccc1)c1ccc(NC(=O)N2Cc3ccccc3C2)cc1 [Example 253, N-(4-{[(1R)-2-hydroxy-1-phenylethyl]carbamoyl}phenyl)-1,3-dihydro-2H-isoindole-2-carboxamide] | 0.852 |
| CC1CCCN1C(=O)c1ccc(NC(=O)N2Cc3ccccc3C2)cc1 (stereo not drawn) [Example 254, N-{4-[(2-methylpyrrolidin-1-yl)carbonyl]phenyl}-1,3-dihydro-2H-isoindole-2-carboxamide] | 0.877 |
| CCN(CCOC)C(=O)c1ccc(NC(=O)N2Cc3ccccc3C2)cc1 [Example 255, N-{4-[ethyl(2-methoxyethyl)carbamoyl]phenyl}-1,3-dihydro-2H-isoindole-2-carboxamide] | 0.969 |
| CC(C)[C@H](CO)NC(=O)c1ccc(NC(=O)N2Cc3ccccc3C2)cc1 [Example 256, N-(4-{[(2R)-1-hydroxy-3-methylbutan-2-yl]carbamoyl}phenyl)-1,3-dihydro-2H-isoindole-2-carboxamide] | 1.23 |
| CC1CN(C(=O)c2ccc(NC(=O)N3Cc4ccccc4C3)cc2)CC(C)O1 (stereo not drawn) [Example 257, N-{4-[(2,6-dimethylmorpholin-4-yl)carbonyl]phenyl}-1,3-dihydro-2H-isoindole-2-carboxamide] | 1.36 |
| CC[C@H](CO)NC(=O)c1ccc(NC(=O)N2Cc3ccccc3C2)cc1 [Example 258, N-(4-{[(2R)-1-hydroxybutan-2-yl]carbamoyl}phenyl)-1,3-dihydro-2H-isoindole-2-carboxamide] | 1.52 |
| CC1CCC(C)N1C(=O)c1ccc(NC(=O)N2Cc3ccccc3C2)cc1 (stereo not drawn) [Example 259, N-{4-[(2,5-dimethylpyrrolidin-1-yl)carbonyl]phenyl}-1,3-dihydro-2H-isoindole-2-carboxamide] | 1.54 |
| COCCN(C(=O)c1ccc(NC(=O)N2Cc3ccccc3C2)cc1)C(C)C [Example 261, N-{4-[isopropyl(2-methoxyethyl)carbamoyl]phenyl}-1,3-dihydro-2H-isoindole-2-carboxamide] | 1.63 |
| CCCN(C(=O)c1ccc(NC(=O)N2Cc3ccccc3C2)cc1)C(C)C [Example 262, N-{4-[isopropyl(propyl)carbamoyl]phenyl}-1,3-dihydro-2H-isoindole-2-carboxamide] | 1.66 |
| N#CCCN(C(=O)c1ccc(NC(=O)N2Cc3ccccc3C2)cc1)C1CC1 [Example 263, N-{4-[(2-cyanoethyl)(cyclopropyl)carbamoyl]phenyl}-1,3-dihydro-2H-isoindole-2-carboxamide] | 1.66 |
| CCN(C(=O)c1ccc(NC(=O)N2Cc3ccccc3C2)cc1)C(C)C [Example 264, N-{4-[ethyl(isopropyl)carbamoyl]phenyl}-1,3-dihydro-2H-isoindole-2-carboxamide] | 1.92 |
| O=C(Nc1ccc(C(=O)N2CCC(F)C2)cc1)N1Cc2ccccc2C1 (stereo not drawn) [Example 265, N-{4-[(3-fluoropyrrolidin-1-yl)carbonyl]phenyl}-1,3-dihydro-2H-isoindole-2-carboxamide] | 2.24 |
| CC(C)N(CCC(=O)O)C(=O)c1ccc(NC(=O)N2Cc3ccccc3C2)cc1 [Example 266, N-{4-[(1,3-dihydro-2H-isoindol-2-ylcarbonyl)amino]benzoyl}-N-isopropyl-beta-alanine] | 2.29 |
| CCCN(C)C(=O)c1ccc(NC(=O)N2Cc3ccccc3C2)cc1 [Example 267, N-{4-[methyl(propyl)carbamoyl]phenyl}-1,3-dihydro-2H-isoindole-2-carboxamide] | 2.75 |
